Test results as given in article PMC9458217, “Synthesis and Biological Evaluation of Cassane Diterpene (5α)-Vuacapane-8(14), 9(11)-Diene and of Some Related Compounds” (Molecules, 2022).

System: B16-F10 mouse melanoma cells
Assay: MTT cytotoxicity on B16-F10 cells
Settings: 72 h

Cc1c2c(cc3c1CCC1C(C)(C)CCCC31C)OC(O)C2 (stereo not shown) [Compound 6, pterolobirin G]
IC50: < 10 µg/mL
